This note sets out measurements from PubChem BioAssay AID743279 (National Center for Advancing Translational Sciences (NCATS), 2014).

The list shows a part of the results, in another mix than the full data. Records with an inconclusive call do not appear. Active and inactive are the calls of the source. Cut-off read from the data, not from the text of the source: active = activity change below about -50%; inconclusive = mostly about -30% to -49%; inactive = weaker than that.
% is set by controls: 0 for no effect and ±100 for the full control effect.

A short description of this assay: qHTS for Inhibitors of Inflammasome Signaling: IL-1-beta AlphaLISA Primary Screen. The conditions noted are these: THP-1 LPS/ATP IL-1B secretion, 16 h, at 57.5 µM, hits give low values. From the text:
Inflammasomes are a set of intracellular multi-protein complexes that enable autocatalytic activation of inflammatory caspases and drive the innate immune response to counter harmful agents. […] A qHTS assay, based on AlphaLISA technology, was developed to screen the Molecular Libraries Small Molecule Repository (MLSMR) to look for novel inflammasome inhibitors. The assay detects IL-1B using AlphaLISA anti-IL-1B acceptor and donor beads. A decreased emission signal, indicating reduced IL-1B secretion, is the desired outcome for this assay. NIH Chemical Genomics Center [NCGC] NIH Molecular Libraries Probe Centers Network [MLPCN] MLPCN Grant: MH095513 Assay Provider: Shyam Biswal Ph.D., Johns Hopkins University Immunity. 2012 Jul 27;37(1):85-95. PMID: 22819042 [2] Curr Pharm Des. 2012;18(16):2320-8. PMID: 22390695
Three microliters containing 3000 THP-1 cells were dispensed into the wells of solid, white, tissue culture treated Greiner 1,536-well plates. Library compounds and positive control, Glyburide, were pin-transferred (23 nL) by a Kalypsys pin-tool equipped with a 1,536-pin array, resulting in final compound concentration ranges of 2.5 nM to 57.5 uM. […] The AlphaLISA signal was read by a PerkinElmer EnVision plate reader with an ultrasensitive luminescence detector and 1536 Plate HTS AlphaScreen aperture (excitation of 680nm and emission of 615nm).
(In general: Quantitative high-throughput screening tests each substance at several concentrations.)
As to `O=P1(Nc2ccc(Br)cn2)COc2ccccc2OC1`, the activity change is inactive: 10.1%. For the molecule `COc1ccccc1OP(C)(=O)Nc1ccccc1Br` (configuration not stated), the activity change was inactive: 16.1%.
